Assay results as given in patent US8067616B2, “Total synthesis of salinosporamide A and analogs thereof” (Nereus Pharmaceuticals, Inc., priority 2006, dated 2011).

Sequences of proteins named here, by UniProt entry; tags and fusion partners are left off. Residues count along the entry.
UniProt G1T4Q9, 1-263: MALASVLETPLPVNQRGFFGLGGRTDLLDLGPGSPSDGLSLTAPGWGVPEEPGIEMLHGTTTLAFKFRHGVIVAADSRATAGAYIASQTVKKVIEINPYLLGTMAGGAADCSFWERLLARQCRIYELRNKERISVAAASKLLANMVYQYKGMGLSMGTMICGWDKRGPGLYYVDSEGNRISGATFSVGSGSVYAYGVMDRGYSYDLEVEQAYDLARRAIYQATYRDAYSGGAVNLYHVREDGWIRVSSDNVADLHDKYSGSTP

How the values were obtained:
[1] = target: chymotrypsin-like activity of purified rabbit 20S proteasomes (Oryctolagus cuniculus, UniProt G1T4Q9); test: In vitro inhibition of chymotrypsin-like activity of purified rabbit muscle 20S proteasome (suc-LLVY-AMC); type: biochemical; details: purified rabbit 20S proteasome
Description: (§1) The compound XVI-1A as obtained synthetically using a method described herein and by fermentation as described in U.S. Pat. No. 7,144,723, which is hereby incorporated by reference in its entirety. Both the synthetic and fermentation compounds XVI-1A were prepared as 20 mM stock solution in DMSO and stored in small aliquots at −80° C. Purified rabbit muscle 20S proteasome was obtained from Boston Biochem (Cambridge, Mass.). To enhance the chymotrypsin-like activity of the proteasome, the assay buffer (20 mM HEPES, pH7.3, 0.5 mM EDTA, and 0.05% Triton X100) was supplemented with SDS resulting in a final SDS concentration of 0.035%. The substrate used was suc-LLVY-AMC, a fluorogenic peptide substrate specifically cleaved by the chymotrypsin-like activity of the proteasome. Assays were performed at a proteasome concentration of 1 μg/ml in a final volume of 200 μl in 96-well Costar microtiter plates. […] After addition of test compounds to the rabbit 20S proteasomes, the samples were preincubated at 37° C. for five minutes in a temperature controlled Fluoroskan Ascent 96-well microplate reader (Thermo Electron, Waltham, Mass.). […] After the preincubation period, the reactions were initiated by the addition of 10 μl of the diluted substrate and the plates were returned to the plate reader. […] Fluorescence of the cleaved peptide substrate was measured at λex=390 nm and λem=460 nm. […]

[2] = target: T1, trypsin-like activity of purified rabbit 20S proteasomes (Oryctolagus cuniculus, UniProt G1SWK8); test: In vitro inhibition of trypsin-like activity of purified rabbit muscle 20S proteasome (Boc-LRR-AMC, no SDS); type: biochemical; details: purified rabbit 20S proteasome
T1 construct: Purified rabbit muscle 20S proteasome was obtained from Boston Biochem; purchased Boston Biochem (Cambridge, Mass.); host or cells: rabbit muscle
T1 sequence (G1SWK8 1-271): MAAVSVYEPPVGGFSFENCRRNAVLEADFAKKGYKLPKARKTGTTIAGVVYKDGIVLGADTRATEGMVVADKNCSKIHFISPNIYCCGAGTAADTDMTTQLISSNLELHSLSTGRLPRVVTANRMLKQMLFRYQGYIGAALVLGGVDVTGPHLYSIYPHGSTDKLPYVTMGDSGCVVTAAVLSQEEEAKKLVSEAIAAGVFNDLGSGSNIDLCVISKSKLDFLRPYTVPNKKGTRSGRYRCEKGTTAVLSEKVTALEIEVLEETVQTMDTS
Description: as §1

[3] = XVI-1A obtained by fermentation

Work on `C[C@@]12OC(=O)[C@]1([C@@H](O)[C@@H]1C=CCCC1)NC(=O)[C@@H]2CCCl` [XVI-1A, Salinosporamide A] yielded an IC50 [1, 3] of 0.0026 µM, an IC50 ([1]; XVI-1A obtained synthetically) of 0.0032 µM and an IC50 [2, 3] of 0.035 µM. For the same compound, the IC50 ([2]; XVI-1A obtained synthetically) was 0.037 µM.
